This is a sample that favours compounds with a hit; in the whole collection about 1.3% have one here.
UUG fidelity: yeast start codon fidelity modulation | S. cerevisiae UUG-firefly luciferase reporter, luminescence/redox ratio | activity score, % at 18.7 µM | hit rate 0.13% among 350,000 | AID 602363;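 active means replicate mean at a twofold rise or more, about +100% in these data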;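 further: firefly luciferase made from a UUG start codon reports start codon fidelity; reporter light over untreated wells divided by growth signal over untreated wells; some hits fall short of that in this replicate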
SR-BI DiI inh: mouse SR-BI HDL lipid transfer inhibition | AID 488896 | ldlA[mSR-BI] CHO cells, DiI-HDL uptake fluorescence, 3 h | Q61009 | inhibition, % at 12.5 µM | 320,000 compounds, 0.96% hits;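 active means mean replicate inhibition of at least 70% and a set share of replicates each scoring 70 or more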
SR-BI DiI-HDL act: activators of SR-BI mediated HDL lipid uptake; CHO ldlA[mSR-BI] cells, DiI-HDL uptake fluorescence, 3 h; 100 = double the neutral-control signal; activation, % at 12.5 µM; 320,000 compounds, 0.096% hits; AID 504775;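 active means mean replicate activation of at least 60% and every replicate at or above 60%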
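Material – SR-BI-overexpressing, LDLR-lacking CHO cells · Medium – BSA-supplemented, HEPES-buffered Ham's F12, pH 7.4 · Doses – single concentration · Times – compound with DiI-HDL co-incubation, 3 h at 37 °C · Measured by – bottom-read fluorescence, 550/595 nm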
GSIS activator: GLuc luminescence reporter in INS-1E cells, primary screen for activators of glucose-dependent secretion of insulin | INS-1E GLuc reporter insulin secretion, 2-3 h | activation, % at 16.6 µM | AID 743287 | 370,000 compounds, 0.61% hits;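 active means lowest replicate activation of at least 40%, so every replicate reaches that level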
Hits are given with their value; – = inactive; · = no result.

SMILES	UUG fidelity	SR-BI DiI inh	SR-BI DiI-HDL act	GSIS activator
CCc1ccc(/C=N/NC(=O)c2cc(C3CC3)nc3ccc(Br)cc23)s1	–	87	–	·
COCc1cc(C)nc2sc(C(=O)Nc3ccccc3Br)c(N)c12	–	79	–	–
CC(C)c1ccc(NC(=O)C2=CC=CN3CCS(=O)(=O)N=C23)cc1	·	–	–	50
CCc1ccc(NC(=O)C2=CC=CN3CCS(=O)(=O)N=C23)cc1	–	–	–	–
Oc1[nH]c2ccccc2c1N=Nc1ccccn1	·	–	–	–
Oc1c(N=Nc2ccccn2)ccc2ccccc12	·	134	–	–
CCC(=O)N1CC2(C1)CN(C(=O)CC)[C@H](CO)c1[nH]c3cc(OC)ccc3c12	·	·	·	–
CC(C)Sc1nc(SCC(=O)O)c2c3c(sc2n1)COC(C)(C)C3	–	–	–	55
COc1ccc2c3c(n(C)c2c1)[C@H](CO)N(C(=O)Nc1ccc(F)cc1)CC31CN(S(=O)(=O)c2cccs2)C1	·	·	·	–
CC(=O)Nc1ccc(-c2ccnc3c2CC(C)(C(=O)Nc2cccc(OC(F)(F)F)c2)O3)cc1 (stereo unspecified)	–	·	·	69
CC(=O)Nc1ccc(-c2ccnc3c2CC(C)(C(=O)Nc2cccc(C(F)(F)F)c2)O3)cc1 (stereo unspecified)	–	·	·	–
CCOC(=O)c1cnc(SCC(=O)OCC(=O)N(CC)C2CCS(=O)(=O)C2)nc1N (stereo unspecified)	·	–	–	–
CCOC(=O)c1cnc(SCC(=O)OCC(=O)NC2CCS(=O)(=O)C2)nc1N (stereo unspecified)	·	–	–	42
CN(C)CCNc1ncnc2c1sc1nc(-c3ccccc3)c3c(c12)CCCC3	–	–	–	193
Cc1ccc(NC(=O)CCc2c(C)nn(-c3ccc(N4CCCCC4)nn3)c2C)cc1	–	–	–	–
Cc1cc(F)ccc1NC(=O)CCc1c(C)nn(-c2ccc(N3CCCCC3)nn2)c1C	–	82	–	–
Cc1ccc(NC(=O)CCc2c(C)nn(-c3ccc(N4CCCCC4)nn3)c2C)cc1C	–	–	–	–
Cc1ccc(F)cc1NC(=O)CCc1c(C)nn(-c2ccc(N3CCCCC3)nn2)c1C	–	81	–	–
COc1ccc(C)cc1NC(=O)CCc1c(C)nn(-c2ccc(N3CCCCC3)nn2)c1C	–	71	–	–
CCCNC(=O)Nc1ccc2c(c1)C(=O)N(C)C[C@@H](OC)[C@H](C)CN(CC1CCCC1)[C@H](C)CO2	·	·	·	–
C[C@@H](NC(=O)[C@H]1[C@H](CO)[C@H]2Cn3c(cccc3=O)[C@H]2N1CC1CCCC1)c1ccccc1	·	·	·	–
C[C@@H]1CN([C@@H](C)CO)C(=O)c2cccc(NC(=O)Nc3ccc4c(c3)OCO4)c2O[C@H]1CN(C)C(=O)Nc1ccccc1	–	·	·	–
O=C(N/N=C/c1cc(Br)cc(Br)c1O)c1cccc(N2CCCC2=O)c1	–	132	–	–
O=C(N/N=C/c1ccc(Cl)cc1Cl)c1cccc(N2CCCC2=O)c1	–	85	–	–
O=C(N/N=C/c1ccc([N+](=O)[O-])cc1)c1cccc(N2CCCC2=O)c1	–	–	–	–
SMILES	UUG fidelity	SR-BI DiI inh	SR-BI DiI-HDL act	GSIS activator
COc1ccc(NC(=O)N(C)C[C@@H]2Oc3c(NS(=O)(=O)c4cccs4)cccc3C(=O)N([C@@H](C)CO)C[C@@H]2C)cc1	–	·	·	–
COc1ccc(C(=O)COC(=O)CSCc2c(C)noc2C)cc1OC	·	–	–	55
CCOC(=O)C1=C(COC(=O)C2(C)CC2(Cl)Cl)NC(=O)NC1c1ccc(OC)cc1 (stereo unspecified)	·	73	–	–
Cc1noc(C)c1S(=O)(=O)NC(=O)C1(C)CCN1C(=O)C1(c2ccc(Cl)cc2)CCC1 (stereo unspecified)	·	·	·	55
CC1(C(=O)NS(=O)(=O)c2ccccc2Cl)CCN1C(=O)C1(c2ccccc2)CCCC1 (stereo unspecified)	–	·	·	92
CC1(C(=O)NS(=O)(=O)c2ccc(Cl)s2)CCN1C(=O)C1(c2ccc(Cl)cc2)CCC1 (stereo unspecified)	–	·	·	59
CC1(C(=O)NS(=O)(=O)c2ccc(Cl)s2)CCN1C(=O)C1(c2ccc(Cl)cc2)CC1 (stereo unspecified)	–	·	·	·
CC1(C(=O)NS(=O)(=O)c2ccc(Cl)s2)CCN1C(=O)C1(c2ccccc2)CCCC1 (stereo unspecified)	–	·	·	111
CC1(C(=O)NS(=O)(=O)c2ccccc2Cl)CCN1C(=O)C1(c2ccccc2)CC1 (stereo unspecified)	–	·	·	–
COc1ccc2c3c(n(C)c2c1)[C@@H](CO)N(S(C)(=O)=O)CC31CCN(C(=O)CN(C)C)CC1	·	·	·	–
COc1nc(-c2ccccc2)ccc1-c1noc(-c2cccnc2)n1	–	–	–	71
C=CCOc1c(Br)cc(/C=N/NC(=O)Cc2ccc(C(F)(F)F)cc2[N+](=O)[O-])cc1OC	–	75	–	–
O=C(C[C@@H]1C=C[C@H](NC(=O)c2ccncc2)[C@@H](CO)O1)NCc1ccncn1	·	·	·	–
COc1ccc(S(=O)(=O)N(C)C[C@H]2Oc3ccc(NS(=O)(=O)c4cn(C)cn4)cc3CC(=O)N([C@H](C)CO)C[C@@H]2C)cc1	–	·	·	–
O=C(CS(=O)(=O)c1cn(CC(=O)N2CCOCC2)c2ccccc12)Nc1ccccc1	·	–	–	40
Cc1ccc(NC(=O)c2ccc(Cl)c(S(=O)(=O)Nc3c(C)n(C)n(-c4ccccc4)c3=O)c2)cc1Cl	–	73	–	–
COc1ccc(CCCCCCOCc2ccccc2)cc1	–	–	–	–
COc1ccc(COC[B-](F)(F)F)cc1	–	·	·	44
CC(C)NC(=O)N(C)C[C@H]1Oc2ncc(C#Cc3ccncc3)cc2C(=O)N([C@@H](C)CO)C[C@@H]1C	–	·	·	–
Cc1cccc(Nc2c([N+](=O)[O-])cc(C(=O)N3CC(=O)Nc4ccccc43)cc2[N+](=O)[O-])c1	–	82	–	–
COc1ccc(S(=O)(=O)N(C)C[C@@H]2Oc3ccc(NS(=O)(=O)c4cccs4)cc3C(=O)N([C@@H](C)CO)C[C@H]2C)cc1	–	·	·	–
Nc1cc([N+](=O)[O-])cc2oc(-c3ccccc3)cc12	–	70	–	–
O=C(C1CCC1)N1CC[C@@H]2[C@@H](CO)Nc3ccc(C#Cc4ccc(F)cc4)cc3[C@@H]21	·	·	·	–
Cc1ccc(C(O)(C(=O)NN(C(=O)c2ccccc2)c2ccccc2)c2ccc(C)cc2)cc1	·	–	–	·
Cc1ccc(N(NC(=O)C(O)(c2ccccc2)c2ccccc2)C(=O)CCl)cc1	·	–	–	82
Cc1ccccc1C(=O)NC1CCSC1=O (stereo unspecified)	–	·	·	121
COc1ccc(CN(C)C[C@H]2Oc3c(NS(=O)(=O)c4ccc(OC)cc4)cccc3C(=O)N([C@@H](C)CO)C[C@H]2C)cc1	–	·	·	–
O=C(N/N=C/c1c(O)ccc2ccccc12)c1cccc(C(F)(F)F)c1	·	137	–	–
O=C(NN=C(Cc1ccccc1)Cc1ccccc1)c1ccccc1O	–	–	299	–
